For the experiment, the target named is CRIPT (Homo sapiens) (UniProt Q9P021).

Protein sequences, listed by entry. Tags and fused reporters are not part of them. Residues count along the entry.
UniProt Q9P021, whole entry: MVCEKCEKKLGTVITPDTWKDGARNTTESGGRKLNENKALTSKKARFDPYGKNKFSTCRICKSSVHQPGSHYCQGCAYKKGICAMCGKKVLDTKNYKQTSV
UniProt P78352, 62-154: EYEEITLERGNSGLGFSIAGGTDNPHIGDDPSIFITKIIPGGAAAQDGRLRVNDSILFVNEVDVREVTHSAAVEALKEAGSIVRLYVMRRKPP

Take PSD-95 PDZ1 (from UniProt P78352): the Ki came to 97 µM. That is a double-digit micromolar value.

Broadly, the Ki is the equilibrium dissociation constant of an inhibitor or competing ligand from its target.

For the origin of these results see paper PMC4319893, “Targeting Protein-Protein Interactions with Trimeric Ligands: High Affinity Inhibitors of the MAGUK Protein Family” (PLoS ONE, 2015).
